Literature values as cited in publication PMC4554882 (Bioorganic & medicinal chemistry, 2015).

Conditions: prior study of the authors; ref [11]; cited from earlier work

Question: Which “metabolic stability t1/2” value does the source give for COc1ccc2c(c1)CCCN2c1nc(Cl)nc2ccccc12 [Compound 1a] here?
Answer: 10.6 min
